Reference: ChEMBL document CHEMBL1157104, “Imaging progesterone receptor in breast tumors: synthesis and receptor binding affinity of fluoroalkyl-substituted analogues of tanaproget” (J Med Chem, 2010)

target: T1, Progesterone receptor (Homo sapiens) (UniProt P06401); assay: Binding affinity to progesterone receptor relative to R5020
T1 sequence (whole entry): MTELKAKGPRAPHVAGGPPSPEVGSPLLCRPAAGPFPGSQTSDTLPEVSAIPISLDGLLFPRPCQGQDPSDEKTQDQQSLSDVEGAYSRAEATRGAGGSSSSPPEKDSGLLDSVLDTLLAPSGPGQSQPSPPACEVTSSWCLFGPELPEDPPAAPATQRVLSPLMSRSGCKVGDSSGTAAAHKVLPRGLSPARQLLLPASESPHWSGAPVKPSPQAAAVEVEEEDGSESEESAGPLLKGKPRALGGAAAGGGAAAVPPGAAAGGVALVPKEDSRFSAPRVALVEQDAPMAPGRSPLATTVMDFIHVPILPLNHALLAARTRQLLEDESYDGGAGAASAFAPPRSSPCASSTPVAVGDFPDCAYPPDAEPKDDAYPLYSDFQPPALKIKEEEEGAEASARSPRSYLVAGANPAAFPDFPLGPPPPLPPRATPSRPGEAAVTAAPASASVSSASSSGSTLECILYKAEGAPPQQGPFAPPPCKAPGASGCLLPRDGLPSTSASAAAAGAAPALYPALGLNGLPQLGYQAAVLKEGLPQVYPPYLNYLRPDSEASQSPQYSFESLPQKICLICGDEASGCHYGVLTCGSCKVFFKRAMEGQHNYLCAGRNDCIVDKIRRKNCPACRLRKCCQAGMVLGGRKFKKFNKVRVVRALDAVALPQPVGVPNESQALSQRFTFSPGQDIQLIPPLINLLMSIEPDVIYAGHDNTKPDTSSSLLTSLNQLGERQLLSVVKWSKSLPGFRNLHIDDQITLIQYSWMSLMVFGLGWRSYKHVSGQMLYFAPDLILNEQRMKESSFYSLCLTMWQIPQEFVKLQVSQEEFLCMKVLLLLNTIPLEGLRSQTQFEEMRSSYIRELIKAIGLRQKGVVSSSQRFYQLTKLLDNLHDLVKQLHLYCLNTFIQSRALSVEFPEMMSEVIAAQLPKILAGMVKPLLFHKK

How did the relative binding affinity (RBA) turn out when `CC1(CCCF)OC(=S)Nc2ccc(-c3ccc(C#N)[nH]3)cc21` (racemic) was run?
Its relative binding affinity (RBA) is 189.

How did the relative binding affinity (RBA) turn out when `Cn1c(C#N)ccc1-c1ccc2c(c1)C(C)(C)OC(=S)N2` was run?
Its relative binding affinity (RBA) is 151.

How did the relative binding affinity (RBA) turn out when `Cn1c(C#N)ccc1-c1ccc2c(c1)C(C)(CCCF)OC(=S)N2` (racemic) was run?
Its relative binding affinity (RBA) is 90.9.

How did the relative binding affinity (RBA) turn out when `C[C@@]1(CCCF)OC(=S)Nc2ccc(-c3ccc(C#N)[nH]3)cc21` was run?
The relative binding affinity (RBA) was 189.

Which relative binding affinity (RBA) does the source give for `Cn1c(C#N)ccc1-c1ccc2c(c1)[C@](C)(CCCF)OC(=S)N2` here?
The relative binding affinity (RBA) was 90.9.

How did the relative binding affinity (RBA) turn out when `Cn1c(C#N)ccc1-c1ccc2c(c1)[C@](C)(CCF)OC(=S)N2` was run?
Its relative binding affinity (RBA) is 151.

For `CC1(CCF)OC(=S)Nc2ccc(-c3ccc(C#N)[nH]3)cc21` (racemic), which relative binding affinity (RBA) is on record?
The relative binding affinity (RBA) was 198.

With `C[C@@]1(CCF)OC(=S)Nc2ccc(-c3ccc(C#N)[nH]3)cc21` as the molecule, how does the relative binding affinity (RBA) read?
The relative binding affinity (RBA) was 198.

Which relative binding affinity (RBA) does the source give for `Cn1c(C#N)ccc1-c1ccc2c(c1)C(C)(CCF)OC(=S)N2` (racemic) here?
Its relative binding affinity (RBA) is 151.
